Tested on: human lung-on-a-chip
Test: IL-2 toxicity (pulmonary vascular leakage) in human lung-on-a-chip
Assay type: cell-based
Description: Lung chips or lung-on-a-chip: The methods, multi-channeled architecture and ability of a Lung Chip (FIG. 1 and FIGS. 2A-2B) to mimic, at least in part, the normal physiology (e.g., normal breathing) of a lung are based on the first organ chip design and has been previously described in Huh D. et al. “Reconstituting organ-level lung function on a chip” Science (2010) 328: 1662, and in the International Application No. WO 2010/009307, the contents of which are incorporated herein by reference in their entireties.
In some embodiments, one side of the membrane 206 can be seeded with alveolar epithelial cells to mimic an epithelial layer while another side of the membrane 206 can be seeded with lung microvascular endothelial cells to mimic capillary vessels. Accordingly, lung chips, in some embodiments can be used to mimic an alveolar-capillary unit, which plays a vital role in the maintenance of normal physiological function of the lung as well as in the pathogenesis and progression of various pulmonary diseases.
The lung chips can be used to evaluate lung response to an active agent, e.g., but not limited to, immune response to microbial infection and/or inflammatory responses to nanoparticulate toxins. […]

## IL-2: chemotherapeutic cytokine with dose-limiting toxicity due to vascular leakage leading to pulmonary edema in humans
Physiological breathing motions (10% cyclic strain)
  blood clot formation: accompanied by blood clot formation as seen in humans
Physiological breathing motions (10% cyclic strain), fluorescent-insulin marker
  increase of pulmonary vascular leakage response relative to static conditions: more than 3 fold
Static conditions, fluorescent-insulin as marker of vascular permeability
  pulmonary vascular leakage into the air channel of the lung chip: small but significant increase

From patent publication US10087422B2, “Organ chips and uses thereof” (PRESIDENT AND FELLOWS OF HARVARD COLLEGE, priority 2011, dated 2018)
